# Measurements from patent US20150352107A1, “ALPHA7 NEURONAL NICOTINIC RECEPTOR LIGAND AND ANTIPSYCHOTIC COMPOSITIONS” (AbbVie Inc., priority 2005, published 2015).
# Test system: Sprague Dawley rats
# Settings: risperidone 2.5 mg/kg i.p. alone, FIG. 3
smiles,measurement,value
"Cc1nc2n(c(=O)c1CCN1CCC(c3noc4cc(F)ccc34)CC1)CCCC2 [Risperidone, 3-[2-[4-(6-fluoro-1,2-benzisoxazol-3-yl)-1-piperidinyl]ethyl]-6,7,8,9-tetrahydro-2-methyl-4H-pyrido[1,2-a]pyrimidin-4-one]","catalepsy, alone",evoked cataleptic effects
